Assay [1] can be described thus: NCI Yeast Anticancer Drug Screen. Data for the rad50 strain (AID 155).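 Note: 0% = growth of vehicle-only cultures of the same strain.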 The note with it: S. cerevisiae rad50 strain growth inhibition, stronger effect = higher value.
Assay [2] is described as follows: NCI Yeast Anticancer Drug Screen. Data for the mec2-1 strain (AID 157). As to conditions: S. cerevisiae mec2-1 strain, stronger effect = higher value.
Assay [3] in a line: NCI Yeast Anticancer Drug Screen. Data for the sgs1 mgt1 strain (AID 161).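 Note: 0% = growth of cultures given vehicle only.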 As to conditions: S. cerevisiae sgs1 mgt1 strain, stronger effect = higher value.
A short description of assay [4]: NCI Yeast Anticancer Drug Screen. Data for the cln2 rad14 strain (AID 165).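 Note: 0% = growth equal to vehicle treated cultures.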 The note with it: S. cerevisiae cln2 rad14 strain, stronger effect = higher value.
The nature of assay [5]: NCI Yeast Anticancer Drug Screen. Data for the bub3 strain (AID 167). As to conditions: S. cerevisiae bub3 mutant strain, stronger effect = higher value.
Assay [6] can be described thus: NCI Yeast Anticancer Drug Screen. Data for the mlh1 rad18 strain (AID 175). The note with it: S. cerevisiae mlh1 rad18 strain growth inhibition, stronger effect = higher value.
Where [7] appears, read: at 5.0 µM (retest, dose inferred, filed as 0.5).
Setting [8] is: at 50.0 µM (retest, dose inferred, filed as 5.0).

Structures are written as SMILES. The entries are a selection whose mix differs from that of the whole data set. Some compounds were tested as several samples or in several runs, with calls that do not always agree. Active and inactive are the calls of the source. Cut-off read from the data, not from the text of the source: active = growth inhibition above about 70%; inactive = the rest.

Regarding `O=[N+]([O-])c1cc([N+](=O)[O-])c(-c2ccccc2)c([N+](=O)[O-])c1`, the growth inhibition was inactive: 6% in assay [1] (setting [7]); active: 99% in assay [1] (setting [8]); active: 99.4% in assay [1] (at 50.0 µM); inactive: 7% in assay [2] (setting [7]); active: 99% in assay [2] (setting [8]); active: 99.3% in assay [2] (at 50.0 µM). Also, the growth inhibition is inactive: 7% in assay [3] (setting [7]); active: 99% in assay [3] (setting [8]); active: 99.5% in assay [3] (at 50.0 µM); inactive: -1% in assay [4] (setting [7]); active: 99% in assay [4] (setting [8]); active: 97.5% in assay [4] (at 50.0 µM). In addition, the growth inhibition in assay [5] (setting [7]) was inactive: 1%; in assay [5] (setting [8]), active: 99%; in assay [5] (at 50.0 µM) it was active: 99.1%; in assay [6] (setting [7]), inactive: 12%; in assay [6] (setting [8]) it was active: 99%; in assay [6] (at 50.0 µM), active: 99.3%.

On to `CC(C)OP(C)(=O)O`, for which the growth inhibition in assay [1] (setting [7]) is inactive: -2%; in assay [1] (setting [8]) it was inactive: 5%; in assay [1] (at 50.0 µM), inactive: 5.3% [middle of 5 runs]; in assay [2] (setting [7]), inactive: -2%; in assay [2] (setting [8]) it was inactive: 2%; in assay [2] (at 50.0 µM), inactive: -0.05% [middle of 5 runs]. Also, the growth inhibition in assay [3] (setting [7]) was inactive: -2%; in assay [3] (setting [8]) it was inactive: -2%; in assay [3] (at 50.0 µM) it was inactive: 2.8% [middle of 5 runs]; in assay [4] (setting [7]) it was inactive: 0%; in assay [4] (setting [8]), inactive: 5%; in assay [5] (setting [7]) it was inactive: 6%. Moreover, the growth inhibition in assay [5] (setting [8]) was inactive: 8%; in assay [6] (setting [7]), inactive: -20%; in assay [6] (setting [8]), inactive: -3%; in assay [6] (at 50.0 µM), inactive: 1.25% [middle of 5 runs].

For `C/C([N+](=O)[O-])=[N+](/[O-])C(C)([N+](=O)[O-])[N+](=O)[O-]`, the growth inhibition was active: 78% in assay [1] (setting [7]); active: 99% in assay [1] (setting [8]); active: 99.5% in assay [1] (at 50.0 µM); active: 76% in assay [2] (setting [7]); active: 99% in assay [2] (setting [8]); active: 99.7% in assay [2] (at 50.0 µM). Also, the growth inhibition is active: 75% in assay [3] (setting [7]); active: 99% in assay [3] (setting [8]); active: 99.5% in assay [3] (at 50.0 µM); active: 70% in assay [4] (setting [7]); active: 99% in assay [4] (setting [8]); active: 99.2% in assay [4] (at 50.0 µM). In addition, the growth inhibition in assay [5] (setting [7]) is active: 90%; in assay [5] (setting [8]) it was active: 99%; in assay [5] (at 50.0 µM), active: 99.5%; in assay [6] (setting [7]), active: 89%; in assay [6] (setting [8]), active: 98%; in assay [6] (at 50.0 µM), active: 99.5%.

For `Cc1ccc2c(ccc3c(C)cccc32)c1C.O=[N+]([O-])c1cc([N+](=O)[O-])c(O)c([N+](=O)[O-])c1`, the growth inhibition was inactive: 2% in assay [1] (setting [7]); inactive: 8% in assay [1] (setting [8]); inactive: 28.4% in assay [1] (at 50.0 µM); inactive: 2% in assay [2] (setting [7]); inactive: 6% in assay [2] (setting [8]); inactive: 23.1% in assay [2] (at 50.0 µM). For the same molecule, the growth inhibition is inactive: 7% in assay [3] (setting [7]); inactive: 17% in assay [3] (setting [8]); inactive: 16% in assay [3] (at 50.0 µM); inactive: -1% in assay [4] (setting [7]); inactive: -19% in assay [4] (setting [8]); inactive: 9.7% in assay [4] (at 50.0 µM). The growth inhibition in assay [5] (setting [7]) was inactive: 4%; in assay [5] (setting [8]), inactive: 12%; in assay [5] (at 50.0 µM), active: 91%; in assay [6] (setting [7]), inactive: 0%; in assay [6] (setting [8]) it was inactive: 5%; in assay [6] (at 50.0 µM), inactive: 29.8%.

In the case of `Cc1cccc2cc3ccc4ccccc4c3cc12.O=C1c2cc([N+](=O)[O-])ccc2-c2c1cc([N+](=O)[O-])cc2[N+](=O)[O-]`, the growth inhibition is inactive: 5% in assay [1] (setting [7]); inactive: 46% in assay [1] (setting [8]); inactive: 9.15% in assay [1] (at 50.0 µM); inactive: 6% in assay [2] (setting [7]); inactive: 35% in assay [2] (setting [8]); inactive: 20.7% in assay [2] (at 50.0 µM). For the same molecule, the growth inhibition is inactive: 3% in assay [3] (setting [7]); inactive: 43% in assay [3] (setting [8]); inactive: 27.5% in assay [3] (at 50.0 µM); inactive: 0% in assay [4] (setting [7]); inactive: -1% in assay [4] (setting [8]); inactive: -6.6% in assay [4] (at 50.0 µM). The growth inhibition in assay [5] (setting [7]) was inactive: 0%; in assay [5] (at 50.0 µM) it was inactive: 51.9%; in assay [6] (setting [7]), inactive: 11%; in assay [6] (setting [8]), inactive: 46%; in assay [6] (at 50.0 µM), inactive: 34%.

With `CCC(C)[S+]1C2CCCCCCC21.O=[N+]([O-])c1cc([N+](=O)[O-])c(S(=O)(=O)[O-])c([N+](=O)[O-])c1`, the growth inhibition is inactive: 4% in assay [1] (setting [7]); inactive: 24% in assay [1] (setting [8]); inactive: 50.3% in assay [1] (at 50.0 µM); inactive: 16% in assay [2] (setting [7]); inactive: 45% in assay [2] (setting [8]); inactive: 16.1% in assay [2] (at 50.0 µM). The growth inhibition in assay [3] (setting [7]) is inactive: -19%; in assay [3] (setting [8]), inactive: 29%; in assay [3] (at 50.0 µM) it was inactive: 63.1%; in assay [4] (setting [7]) it was inactive: -6%; in assay [4] (setting [8]) it was inactive: 16%; in assay [4] (at 50.0 µM), inactive: 46.3%. In addition, the growth inhibition in assay [5] (setting [7]) is inactive: 18%; in assay [5] (setting [8]), inactive: 47%; in assay [5] (at 50.0 µM), inactive: 53.4%; in assay [6] (setting [7]), inactive: 18%; in assay [6] (setting [8]) it was inactive: 38%; in assay [6] (at 50.0 µM), inactive: 21.9%.

Take `CS/C(=C/[S+](C)C)c1ccccc1.O=[N+]([O-])c1cc([N+](=O)[O-])c(S(=O)(=O)[O-])c([N+](=O)[O-])c1`: the growth inhibition in assay [1] (at 50.0 µM) was inactive: 55.2%; in assay [2] (at 50.0 µM), inactive: 24.2%; in assay [3] (at 50.0 µM), inactive: 51.6%; in assay [4] (at 50.0 µM) it was inactive: 29.7%; in assay [5] (at 50.0 µM), inactive: 19.5%; in assay [6] (at 50.0 µM) it was inactive: 47.5%.

`C(=C\c1ccccn1)/c1ccccc1.O=[N+]([O-])c1cc([N+](=O)[O-])c(O)c([N+](=O)[O-])c1`: the growth inhibition in assay [1] (at 50.0 µM) was inactive: 7.4%; in assay [2] (at 50.0 µM) it was inactive: 9.75%; in assay [3] (at 50.0 µM) it was inactive: -3.75%; in assay [4] (at 50.0 µM) it was inactive: -8.5%; in assay [5] (at 50.0 µM), inactive: 22.6%; in assay [6] (at 50.0 µM), inactive: 1.2%.

Take `C/C=C/Sc1ccccn1.O=[N+]([O-])c1cc([N+](=O)[O-])c(O)c([N+](=O)[O-])c1`: the growth inhibition in assay [1] (at 50.0 µM) is inactive: 37.6%; in assay [2] (at 50.0 µM) it was inactive: 14.9%; in assay [3] (at 50.0 µM), inactive: 42.5%; in assay [4] (at 50.0 µM), inactive: 18.8%; in assay [5] (at 50.0 µM), inactive: -3.55%; in assay [6] (at 50.0 µM), inactive: 25.3%.

Values taken from PubChem BioAssay (NCI).
